This series is described as follows: in vitro. Particulars: mouse, plasma.

Structures are written as SMILES.

Compound `Nc1nc(N)c(-c2ccc(NCc3ccc(OCC[18F])cc3)cc2)c(COCc2ccccc2)n1` registered a fraction remaining at 1 h of 80%.

Usually fraction remaining stands for what is left of the initial amount, in per cent.

These data come from ChEMBL document CHEMBL5579799, “Synthesis and biological evaluation of novel 18F-labeled 2,4-diaminopyrimidine derivatives for detection of ghrelin receptor in the brain” (Bioorg Med Chem Lett, 2024).
